Here are results for one compound from ChEMBL document CHEMBL6114988, “Design, synthesis and biological evaluation of dual CDK9/PARP inhibitors for the treatment of cancer” (Eur J Med Chem, 2025).

The chains behind the UniProt entries cited, without tags or fusion partners. Where a name states a change or a piece, a line headed by the entry shows the natural chain unless it says otherwise.
UniProt O75909: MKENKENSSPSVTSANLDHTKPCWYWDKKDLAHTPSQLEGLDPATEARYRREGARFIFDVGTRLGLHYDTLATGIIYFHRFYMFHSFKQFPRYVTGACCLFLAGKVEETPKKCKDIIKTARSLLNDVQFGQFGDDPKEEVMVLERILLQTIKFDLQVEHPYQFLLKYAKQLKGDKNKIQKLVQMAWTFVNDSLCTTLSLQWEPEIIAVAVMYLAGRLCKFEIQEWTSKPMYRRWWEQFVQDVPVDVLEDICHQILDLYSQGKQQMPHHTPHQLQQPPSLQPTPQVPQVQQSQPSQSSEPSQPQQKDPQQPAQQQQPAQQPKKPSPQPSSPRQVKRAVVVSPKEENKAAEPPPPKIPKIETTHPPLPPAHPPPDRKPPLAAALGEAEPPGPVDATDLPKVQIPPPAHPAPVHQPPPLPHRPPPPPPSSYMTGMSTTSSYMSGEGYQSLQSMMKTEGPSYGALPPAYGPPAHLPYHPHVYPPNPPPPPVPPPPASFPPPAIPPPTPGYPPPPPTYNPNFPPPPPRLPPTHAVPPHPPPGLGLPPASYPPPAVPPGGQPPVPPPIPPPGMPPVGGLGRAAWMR
UniProt P49336: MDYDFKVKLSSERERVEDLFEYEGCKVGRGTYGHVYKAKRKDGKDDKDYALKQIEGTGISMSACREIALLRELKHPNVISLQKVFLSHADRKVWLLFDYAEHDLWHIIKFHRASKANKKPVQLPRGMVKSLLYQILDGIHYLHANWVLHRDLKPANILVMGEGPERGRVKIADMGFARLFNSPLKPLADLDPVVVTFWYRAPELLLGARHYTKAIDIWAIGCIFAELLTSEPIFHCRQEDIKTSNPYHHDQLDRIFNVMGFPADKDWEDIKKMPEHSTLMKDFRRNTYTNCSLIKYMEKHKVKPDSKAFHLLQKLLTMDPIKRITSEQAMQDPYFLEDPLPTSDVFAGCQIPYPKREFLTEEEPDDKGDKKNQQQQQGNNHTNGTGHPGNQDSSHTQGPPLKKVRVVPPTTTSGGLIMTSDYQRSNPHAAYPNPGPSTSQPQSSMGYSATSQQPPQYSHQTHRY
UniProt P24863: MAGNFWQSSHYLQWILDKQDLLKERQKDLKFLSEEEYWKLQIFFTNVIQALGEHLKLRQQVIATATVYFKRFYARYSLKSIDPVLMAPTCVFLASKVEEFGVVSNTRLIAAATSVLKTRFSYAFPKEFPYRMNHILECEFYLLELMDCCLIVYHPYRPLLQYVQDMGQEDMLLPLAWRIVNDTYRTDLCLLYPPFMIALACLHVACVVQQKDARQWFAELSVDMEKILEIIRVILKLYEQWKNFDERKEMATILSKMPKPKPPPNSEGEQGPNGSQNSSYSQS
UniProt Q07002: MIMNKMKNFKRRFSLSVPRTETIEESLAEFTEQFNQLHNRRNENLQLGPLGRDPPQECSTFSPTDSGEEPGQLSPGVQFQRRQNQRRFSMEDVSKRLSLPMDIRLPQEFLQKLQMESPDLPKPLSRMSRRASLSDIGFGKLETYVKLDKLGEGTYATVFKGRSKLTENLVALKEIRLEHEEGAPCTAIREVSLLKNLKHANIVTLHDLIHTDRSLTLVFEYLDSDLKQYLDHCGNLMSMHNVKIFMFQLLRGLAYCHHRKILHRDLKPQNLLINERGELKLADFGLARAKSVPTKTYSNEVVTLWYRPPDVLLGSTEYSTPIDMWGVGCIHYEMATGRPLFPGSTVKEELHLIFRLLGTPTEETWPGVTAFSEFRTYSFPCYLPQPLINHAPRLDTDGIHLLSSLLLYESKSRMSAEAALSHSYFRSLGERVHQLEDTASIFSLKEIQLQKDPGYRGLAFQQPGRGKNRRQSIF
UniProt Q8ND76: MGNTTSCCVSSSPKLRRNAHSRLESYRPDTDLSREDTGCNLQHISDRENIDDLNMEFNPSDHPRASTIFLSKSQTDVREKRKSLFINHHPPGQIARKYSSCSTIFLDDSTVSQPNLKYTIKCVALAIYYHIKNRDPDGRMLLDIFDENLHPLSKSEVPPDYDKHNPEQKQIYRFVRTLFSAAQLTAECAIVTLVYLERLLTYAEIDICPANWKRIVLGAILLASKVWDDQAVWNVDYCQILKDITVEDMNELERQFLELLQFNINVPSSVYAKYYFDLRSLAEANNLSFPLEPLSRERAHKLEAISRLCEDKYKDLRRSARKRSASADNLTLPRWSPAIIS
UniProt P11802: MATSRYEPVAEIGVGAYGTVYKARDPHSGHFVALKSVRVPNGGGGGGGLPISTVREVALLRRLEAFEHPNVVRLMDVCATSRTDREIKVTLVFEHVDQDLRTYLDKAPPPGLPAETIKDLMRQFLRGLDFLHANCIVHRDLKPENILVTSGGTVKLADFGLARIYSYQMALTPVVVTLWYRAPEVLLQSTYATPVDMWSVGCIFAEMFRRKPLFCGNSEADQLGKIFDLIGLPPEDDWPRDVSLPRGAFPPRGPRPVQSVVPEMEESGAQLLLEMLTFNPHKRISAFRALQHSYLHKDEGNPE
UniProt P24385: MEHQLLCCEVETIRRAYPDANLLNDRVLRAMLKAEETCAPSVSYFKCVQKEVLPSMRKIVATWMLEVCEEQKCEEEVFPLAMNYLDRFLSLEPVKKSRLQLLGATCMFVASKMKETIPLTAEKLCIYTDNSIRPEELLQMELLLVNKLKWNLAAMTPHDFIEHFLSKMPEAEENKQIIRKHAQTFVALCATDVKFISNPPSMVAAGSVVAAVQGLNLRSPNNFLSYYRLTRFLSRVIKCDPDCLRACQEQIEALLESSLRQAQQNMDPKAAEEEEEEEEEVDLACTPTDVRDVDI
UniProt Q15078: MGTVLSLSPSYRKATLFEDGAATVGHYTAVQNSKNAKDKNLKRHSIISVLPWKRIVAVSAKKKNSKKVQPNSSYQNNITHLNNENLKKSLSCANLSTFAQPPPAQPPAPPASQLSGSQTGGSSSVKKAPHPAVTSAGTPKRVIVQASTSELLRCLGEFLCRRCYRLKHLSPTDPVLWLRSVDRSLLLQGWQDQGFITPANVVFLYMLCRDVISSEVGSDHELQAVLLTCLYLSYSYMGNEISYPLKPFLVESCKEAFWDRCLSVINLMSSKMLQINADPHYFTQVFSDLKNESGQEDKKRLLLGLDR
UniProt P24864, whole entry, looked up: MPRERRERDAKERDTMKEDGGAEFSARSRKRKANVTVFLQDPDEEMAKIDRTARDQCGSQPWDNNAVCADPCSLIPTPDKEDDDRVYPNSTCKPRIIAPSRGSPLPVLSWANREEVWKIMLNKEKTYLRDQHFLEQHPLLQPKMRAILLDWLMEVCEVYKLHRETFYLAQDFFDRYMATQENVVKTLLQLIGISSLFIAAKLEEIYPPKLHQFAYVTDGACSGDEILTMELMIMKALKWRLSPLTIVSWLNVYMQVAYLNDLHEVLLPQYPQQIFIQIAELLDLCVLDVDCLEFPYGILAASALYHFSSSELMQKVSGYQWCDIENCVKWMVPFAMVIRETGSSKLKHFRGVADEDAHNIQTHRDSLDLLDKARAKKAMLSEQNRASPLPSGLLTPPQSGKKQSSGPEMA
UniProt Q00526: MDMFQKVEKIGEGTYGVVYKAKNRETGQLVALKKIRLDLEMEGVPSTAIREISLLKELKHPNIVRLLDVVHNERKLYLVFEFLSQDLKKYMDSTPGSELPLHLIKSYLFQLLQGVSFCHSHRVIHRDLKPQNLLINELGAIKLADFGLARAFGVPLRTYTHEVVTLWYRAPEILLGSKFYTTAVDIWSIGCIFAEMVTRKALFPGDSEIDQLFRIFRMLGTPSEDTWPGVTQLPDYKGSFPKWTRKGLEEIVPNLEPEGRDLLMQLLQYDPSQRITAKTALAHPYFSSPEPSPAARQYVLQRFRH
UniProt Q00534: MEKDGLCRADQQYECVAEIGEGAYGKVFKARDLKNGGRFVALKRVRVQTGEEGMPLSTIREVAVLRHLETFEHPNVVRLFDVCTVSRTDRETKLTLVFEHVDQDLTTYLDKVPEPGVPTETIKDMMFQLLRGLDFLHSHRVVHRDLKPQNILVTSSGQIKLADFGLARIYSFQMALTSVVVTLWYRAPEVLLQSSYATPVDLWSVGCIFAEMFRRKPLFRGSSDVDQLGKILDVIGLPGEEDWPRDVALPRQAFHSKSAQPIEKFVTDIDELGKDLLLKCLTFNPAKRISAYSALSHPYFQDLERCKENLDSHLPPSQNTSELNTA
UniProt O94921: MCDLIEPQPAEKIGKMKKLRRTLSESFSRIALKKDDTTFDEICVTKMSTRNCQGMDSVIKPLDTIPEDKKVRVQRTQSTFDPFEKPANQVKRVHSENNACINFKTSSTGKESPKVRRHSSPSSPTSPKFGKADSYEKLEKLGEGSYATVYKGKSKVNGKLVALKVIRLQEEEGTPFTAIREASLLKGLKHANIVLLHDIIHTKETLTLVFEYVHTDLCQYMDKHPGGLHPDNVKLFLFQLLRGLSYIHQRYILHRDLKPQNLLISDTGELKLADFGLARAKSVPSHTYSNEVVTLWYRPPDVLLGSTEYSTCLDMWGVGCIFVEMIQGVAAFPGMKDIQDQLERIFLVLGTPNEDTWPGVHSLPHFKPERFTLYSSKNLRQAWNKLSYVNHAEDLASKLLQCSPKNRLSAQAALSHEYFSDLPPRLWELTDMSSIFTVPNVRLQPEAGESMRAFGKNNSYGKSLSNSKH
UniProt P51946: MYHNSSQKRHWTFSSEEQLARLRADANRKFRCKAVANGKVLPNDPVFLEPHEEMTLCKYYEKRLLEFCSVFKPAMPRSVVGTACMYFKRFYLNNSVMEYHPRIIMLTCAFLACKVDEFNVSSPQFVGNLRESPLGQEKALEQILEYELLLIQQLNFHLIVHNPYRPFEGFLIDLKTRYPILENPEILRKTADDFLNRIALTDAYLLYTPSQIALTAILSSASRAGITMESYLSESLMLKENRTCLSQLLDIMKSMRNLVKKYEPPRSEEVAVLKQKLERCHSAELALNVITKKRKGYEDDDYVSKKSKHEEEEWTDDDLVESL
UniProt P50613: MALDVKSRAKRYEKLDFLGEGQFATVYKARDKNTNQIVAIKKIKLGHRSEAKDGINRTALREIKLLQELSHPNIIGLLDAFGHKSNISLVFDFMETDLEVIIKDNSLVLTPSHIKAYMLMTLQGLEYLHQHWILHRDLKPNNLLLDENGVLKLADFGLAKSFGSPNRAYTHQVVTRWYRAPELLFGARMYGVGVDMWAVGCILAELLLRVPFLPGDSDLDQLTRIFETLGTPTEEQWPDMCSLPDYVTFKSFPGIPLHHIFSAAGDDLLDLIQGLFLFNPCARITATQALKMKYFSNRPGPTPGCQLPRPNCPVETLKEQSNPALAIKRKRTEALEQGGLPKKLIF
UniProt Q00536: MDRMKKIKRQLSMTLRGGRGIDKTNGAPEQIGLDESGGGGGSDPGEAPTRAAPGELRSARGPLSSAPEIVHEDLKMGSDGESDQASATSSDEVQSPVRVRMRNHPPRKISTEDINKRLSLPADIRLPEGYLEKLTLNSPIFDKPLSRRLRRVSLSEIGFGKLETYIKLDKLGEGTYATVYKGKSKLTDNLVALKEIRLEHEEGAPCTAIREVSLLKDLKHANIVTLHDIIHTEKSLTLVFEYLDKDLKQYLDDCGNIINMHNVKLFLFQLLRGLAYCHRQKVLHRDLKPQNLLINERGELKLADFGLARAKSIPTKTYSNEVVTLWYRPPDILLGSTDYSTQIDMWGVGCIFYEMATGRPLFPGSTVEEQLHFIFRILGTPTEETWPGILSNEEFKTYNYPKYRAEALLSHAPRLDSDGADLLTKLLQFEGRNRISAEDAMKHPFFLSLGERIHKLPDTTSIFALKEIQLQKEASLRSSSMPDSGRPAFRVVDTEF
UniProt P06493, whole entry, looked up: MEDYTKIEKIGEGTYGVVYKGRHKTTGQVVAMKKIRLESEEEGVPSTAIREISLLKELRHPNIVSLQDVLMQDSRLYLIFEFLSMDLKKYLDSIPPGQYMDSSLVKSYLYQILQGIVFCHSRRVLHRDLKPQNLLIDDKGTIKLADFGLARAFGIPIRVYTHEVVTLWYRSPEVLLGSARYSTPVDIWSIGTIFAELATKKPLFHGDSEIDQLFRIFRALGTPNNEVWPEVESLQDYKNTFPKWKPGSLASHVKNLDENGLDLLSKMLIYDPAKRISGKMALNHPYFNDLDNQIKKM
UniProt Q96Q40: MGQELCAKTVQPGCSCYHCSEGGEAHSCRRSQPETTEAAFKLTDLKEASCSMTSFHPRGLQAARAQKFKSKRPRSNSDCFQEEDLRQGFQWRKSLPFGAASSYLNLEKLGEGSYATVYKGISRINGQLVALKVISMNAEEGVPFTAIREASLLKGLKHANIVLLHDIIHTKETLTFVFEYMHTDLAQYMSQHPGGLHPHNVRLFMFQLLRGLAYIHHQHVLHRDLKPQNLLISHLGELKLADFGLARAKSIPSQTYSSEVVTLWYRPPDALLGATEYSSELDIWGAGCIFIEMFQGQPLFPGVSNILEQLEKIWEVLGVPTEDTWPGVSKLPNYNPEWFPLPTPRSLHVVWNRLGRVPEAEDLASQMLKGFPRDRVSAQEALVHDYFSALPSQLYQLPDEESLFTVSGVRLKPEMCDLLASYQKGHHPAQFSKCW

Assay [1] concerns the target T1, CDK12/Cyclin K (Homo sapiens) (UniProt O75909+Q9NYV4). Particulars: dose 200.0 nM, time 70.0 min.
For assay [2], the target named is CDK8/Cyclin C (Homo sapiens) (UniProt P49336+P24863). To be noted: dose 200.0 nM, time 70.0 min.
The species named for the next assay is Homo sapiens. Particulars: dose 200.0 nM, time 10.0 min.
The target in assay [3] is CDK18/Cyclin Y (Homo sapiens) (UniProt Q07002+Q8ND76). Particulars: dose 200.0 nM, time 70.0 min.
Assay [4] has as its target Cyclin-dependent kinase 4/cyclin D1 (Homo sapiens) (UniProt P11802+P24385). To be noted: dose 200.0 nM, time 70.0 min.
Assay [5] deals with Cyclin-dependent kinase 5/CDK5 activator 1 (Homo sapiens) (UniProt Q00535+Q15078). To be noted: dose 200.0 nM, time 70.0 min.
Assay [6] deals with Cyclin-dependent kinase 2/cyclin E1 (Homo sapiens) (UniProt P24864+P24941). To be noted: dose 200.0 nM, time 70.0 min.
Assay [7] deals with CDK3/Cyclin E (Homo sapiens) (UniProt P24864+Q00526). To be noted: dose 200.0 nM, time 70.0 min.
For assay [8], the target named is T1, CDK12/Cyclin K (Homo sapiens). Particulars: dose 200.0 nM, time 70.0 min. This is another data set of the same source.
The target of assay [9] is CDK6/cyclin D1 (Homo sapiens) (UniProt P24385+Q00534). To be noted: dose 200.0 nM, time 70.0 min.
The target in assay [10] is Cyclin-dependent kinase 14/Cyclin-Y (Homo sapiens) (UniProt O94921+Q8ND76). Particulars: dose 200.0 nM, time 70.0 min.
Assay [11] concerns the target CDK7/Cyclin H/MNAT1 (Homo sapiens) (UniProt P51946+P50613+P51948). To be noted: dose 200.0 nM, time 70.0 min.
The target in assay [12] is Cyclin-Y/Cyclin-dependent kinase 16 (Homo sapiens) (UniProt Q00536+Q8ND76). Particulars: dose 200.0 nM, time 70.0 min.
For assay [13], the target named is CDK1/Cyclin A (Homo sapiens) (UniProt P06493+P20248). Particulars: dose 200.0 nM, time 70.0 min.
Assay [14] has as its target CDK15/Cyclin Y (Homo sapiens) (UniProt Q96Q40+Q8ND76). To be noted: dose 200.0 nM, time 70.0 min.

Broadly, the inhibition is the change of the read-out against control, counted positive when it falls. As to `COc1ccc(-c2cc(Nc3cc(CN4CCN(C(=O)c5cc(Cc6n[nH]c(=O)c7ccccc67)ccc5F)CC4)ccn3)ncn2)c(OC)c1`, the inhibition in [1] is 6.17%; in [2], -5.12%; in the assay listed under Homo sapiens, -2.74%; in assay [3], 3.06%; in [4] it was 1.65%; in assay [5], -1.9%. Besides, the inhibition in assay [6] was 5.52%; in [7] it was 4.45%; in [8], 7.17%; in assay [9], -4.81%; in assay [10], -6.59%; in [11], -4.16%. Further, the inhibition in [12] is 4.84%; in assay [13], 5.09%; in assay [14] it was -5.6%.
